Reference: PubChem BioAssay AID602429 (Sanford-Burnham Center for Chemical Genomics, 2012)
The list shows a part of the results, in another mix than the full data. Calls of active or inactive are those of the source. No stated cut-off is given here; in the data, active means inhibition above about 37%; inactive means the rest.

Sequences of proteins named here, by UniProt entry; tags and fusion partners are left off.
UniProt P63165, whole entry, looked up: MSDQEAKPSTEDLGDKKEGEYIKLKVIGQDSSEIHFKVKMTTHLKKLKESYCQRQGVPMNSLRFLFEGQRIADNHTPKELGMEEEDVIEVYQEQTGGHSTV

Target: Small ubiquitin-related modifier 1 (Homo sapiens) (UniProt P63165)
Assay: SUMO1 binding to interaction partners, disruption – biochemical, uHTS, primary screen (AID 602429)
Details: SUMO1 binding to a labelled peptide, TR-FRET, 1 h; at 20 µM; active compounds read high

SMILES | inhibition
O=C(Nc1cc([As](=O)(O)O)ccc1O)c1ccccc1 | inactive: -7.43%
CCN(/C(=N/P(=O)(N1CCOCC1)N1CCOCC1)N1CCOCC1)c1ccc(OC)cc1 | inactive: 0.397%
C[N+]1=C2C=CC=CC=C2SC12C([N+](=O)[O-])=CC([N+](=O)[O-])=C[C-]2[N+](=O)[O-] (configuration not stated) | inactive: 3.78%
Nc1ccc([As](=O)(O)c2ccc(N)cc2)cc1 | inactive: -1.32%
c1cc(-c2nn[nH]n2)ccc1-c1nn[nH]n1 | inactive: -0.425%
CC1CCN(C(=O)Oc2c(Cl)cc(Cl)c3cccnc23)CC1 | inactive: -7.94%
CN(C)C(=O)OCCc1n(C)cc[n+]1C | inactive: 1.12%
CC(C)=N/N=C(\N)N[N+](=O)[O-] | inactive: 1.11%
CC(C)c1nc(Nc2ccccc2)n(P(=O)(N(C)C)N(C)C)n1 | inactive: 0.106%
COc1ccc(C2=NCC(CBr)S2)cc1 (configuration not stated) | inactive: 0.862%
O=[N+]([O-])c1cc([N+](=O)[O-])c(CCNc2ccccc2)c([N+](=O)[O-])c1 | inactive: -21.1%
CCc1nc2c(n1)c1c(non1O)c1c2no[n+]1[O-] | inactive: -19.6%
Cc1ccc(NP(=O)(Oc2ccccc2)Oc2ccccc2)nc1 | inactive: 0.906%
CC(=O)N1C2C3N(C(C)=O)C1C1N(C(C)=O)C(C(N1C(C)=O)N3C(C)=O)N2C(C)=O | inactive: 0.119%
O=[N+]([O-])c1cccc2n[nH]nc12 | inactive: -20.1%
O=P(Nc1nccs1)(c1ccccc1)c1ccccc1 | inactive: 1.72%
CC(C)C(=O)NC(Sc1ccccc1)C(Cl)(Cl)Cl (configuration not stated) | inactive: -0.762%
c1nnnn1CCn1cnnn1 | inactive: 0.44%
O=[As](O)(c1ccccc1)c1ccc(O)cc1 | inactive: -3.51%

SMILES | inhibition
CC(=O)NC(SC(=S)N(C)C)C(Cl)(Cl)Cl (configuration not stated) | inactive: -0.13%
O=[N+]([O-])c1ncn(CCn2cnc([N+](=O)[O-])n2)n1 | inactive: -26.4%
O=[N+]([O-])c1ccc(O)c(/C=N/Nc2ccc([N+](=O)[O-])cc2[N+](=O)[O-])c1 | inactive: -9.48%
O=C(OC1CN2CCC1CC2)c1cccc(Cl)c1 (configuration not stated) | inactive: 0.842%
Nc1ccc([As](=O)(O)c2ccc([N+](=O)[O-])cc2)cc1 | inactive: -24.3%
C(Cc1nn[nH]n1)Cc1nn[nH]n1 | inactive: -2.44%
CN(C)C1(CNC(=O)c2ccc(Cl)c(S(N)(=O)=O)c2)CCCCC1 | inactive: 2.13%
O=P(Nc1ccccn1)(c1ccc(Br)cc1)c1ccc(Br)cc1 | inactive: -4.12%
Nc1ccc(CCCCOc2ccccc2)cc1 | inactive: -12.5%
COc1ccc(N)c([N+](=O)[O-])c1[N+](=O)[O-] | inactive: -38.2%
C[C@H]1OP(=O)(Oc2ccccc2)[C@H](O)[C@H](O)[C@H]1N=[N+]=[N-] (some centres not stated) | inactive: 4.93%
O=P(Nc1nc2ccccc2s1)(c1ccccc1)c1ccccc1 | inactive: -0.0735%
CCC(=O)N1C2C3N(C(=O)CC)C1C1N(C(=O)CC)C(C(N1C(=O)CC)N3C(=O)CC)N2C(=O)CC | inactive: 1.54%
O=C(OC1CN2CCC1CC2)c1ccccc1 (configuration not stated) | inactive: 2.63%
CC(=O)NC(SC(=S)N(CC(C)C)CC(C)C)C(Cl)(Cl)Cl (configuration not stated) | inactive: 1.38%
Cc1ccc(OP(=O)(Nc2ccccn2)Oc2ccc(C)cc2)cc1 | inactive: -0.081%
COC(=O)c1cc2c(s1)N=C(c1ccccc1)N(C)P2(=O)N1CCOCC1 (configuration not stated) | inactive: 0.314%
CN(C)C(=O)Oc1noc2ccccc12 | inactive: 1.51%
O=c1c2cc([N+](=O)[O-])ccc2[nH]c2c([N+](=O)[O-])cc([N+](=O)[O-])cc12 | inactive: 21%

SMILES | inhibition
Cc1ccccc1OP(=O)(Nc1ccccn1)Oc1ccccc1C | inactive: 7.34%
CC(NC(=O)COC(=O)C(O)(c1ccccc1)c1ccccc1)c1ccccc1 (configuration not stated) | inactive: 3.95%
Cc1ccc(NP(=O)(Oc2cccc(C)c2)Oc2cccc(C)c2)nc1 | inactive: -4.45%
c1ccc(-c2nn[nH]n2)c(-c2nn[nH]n2)c1 | inactive: -1.97%
O=C(NC1CCS(=O)(=O)C1)NP(=S)(Oc1ccccc1)Oc1ccccc1 (configuration not stated) | inactive: -3.86%
CCNC(=S)/N=C(\N)N[N+](=O)[O-] | inactive: 12%
O=P1(N(CCCl)CCCl)OCCC2CCCCN21 (configuration not stated) | inactive: -19.2%
C[C@@H]1C=CCP(=O)(Oc2ccccc2)O1 (some centres not stated) | inactive: -1.28%
C[C@H]1OP(=O)(Oc2ccccc2)C[C@@H]2O[C@@H]21 (some centres not stated) | inactive: -10.8%
Cc1ccccc1CN(C)C(=O)COC(=O)C(O)(c1ccccc1)c1ccccc1 | inactive: 4.63%
COC(=O)C1(C)COP(=O)(NCc2ccccc2)OC1 (configuration not stated) | inactive: 1.51%
N#C/C(=C\c1ccc(N(CCBr)CCBr)cc1)C(N)=O | inactive: -20.7%
CC(=O)c1ccc(N2CC2c2ccncc2)cc1 (configuration not stated) | inactive: -1.19%
CC(=O)Nc1ccc(Oc2c([N+](=O)[O-])cc([N+](=O)[O-])cc2[N+](=O)[O-])cc1 | inactive: -17.6%
CC(=O)Nc1ccc([As](=O)(O)O)c(O)c1 | inactive: 0.909%
CCOc1ccc(C2=NCC(CBr)S2)cc1 (configuration not stated) | inactive: -0.108%
O=P1(Nc2nc3ccc(Cl)cc3s2)COc2ccccc2O1 (configuration not stated) | inactive: 1.83%
CC(C)(C)C(=O)NC(Sc1ccccc1)C(Cl)(Cl)Cl (configuration not stated) | inactive: 2.53%
CCc1cc(O)c([N+](=O)[O-])c(C)c1[N+](=O)[O-] | inactive: -0.201%
